Substitutions are numbered along the chain they refer to.
Columns and labels:
Experiment in all cases: cell-based
Conditions in all cases: SEM
rKv4.2 V278A = molecular target: T1, rKv4.2 V278A (Rattus norvegicus, UniProt Q63881, V278A)
T1 construct: expressed in transfected cells; host or cells: HEK293T
T1 sequence (Q63881 1-630 V278A): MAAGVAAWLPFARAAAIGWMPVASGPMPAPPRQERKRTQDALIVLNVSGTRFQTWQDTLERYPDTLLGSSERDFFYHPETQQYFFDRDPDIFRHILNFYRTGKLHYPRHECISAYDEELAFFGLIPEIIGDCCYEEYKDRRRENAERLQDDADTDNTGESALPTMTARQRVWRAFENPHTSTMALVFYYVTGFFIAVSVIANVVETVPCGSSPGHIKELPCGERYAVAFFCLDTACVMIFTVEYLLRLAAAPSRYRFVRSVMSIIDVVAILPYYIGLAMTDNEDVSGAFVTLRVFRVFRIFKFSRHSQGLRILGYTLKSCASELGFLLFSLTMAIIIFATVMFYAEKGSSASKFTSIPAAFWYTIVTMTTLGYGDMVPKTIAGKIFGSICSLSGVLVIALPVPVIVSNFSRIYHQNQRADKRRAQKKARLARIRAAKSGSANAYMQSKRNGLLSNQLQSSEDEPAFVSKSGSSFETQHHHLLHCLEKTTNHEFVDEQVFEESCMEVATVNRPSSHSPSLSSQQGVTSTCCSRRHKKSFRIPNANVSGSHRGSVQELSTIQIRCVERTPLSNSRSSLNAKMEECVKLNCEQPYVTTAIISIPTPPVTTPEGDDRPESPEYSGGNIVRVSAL

rKv4.2 T280A = molecular target: T2, rKv4.2 T280A (Rattus norvegicus, UniProt Q63881, T280A)
T2 construct: expressed in transfected cells; host or cells: HEK293T
T2 sequence (Q63881 1-630 T280A): T1 sequence (Q63881 1-630 V278A) with A278V, T280A

rKv4.2 D281K = molecular target: T3, rKv4.2 D281K (Rattus norvegicus, UniProt Q63881, D281K)
T3 construct: expressed in transfected cells; host or cells: HEK293T
T3 sequence (Q63881 1-630 D281K): T1 sequence (Q63881 1-630 V278A) with A278V, D281K

rKv4.2 N282A = molecular target: T4, rKv4.2 N282A (Rattus norvegicus, UniProt Q63881, N282A)
T4 construct: expressed in transfected cells; host or cells: HEK293T
T4 sequence (Q63881 1-630 N282A): T1 sequence (Q63881 1-630 V278A) with A278V, N282A

With `CC[C@H](C)[C@H](NC(=O)[C@H](CCCCN)NC(=O)[C@H](Cc1ccc(O)cc1)NC(=O)[C@H](CCCCN)NC(=O)[C@@H]1CSSC[C@@H]2NC(=O)[C@H](CCC(=O)O)NC(=O)[C@H](CC(=O)O)NC(=O)[C@H](CCCCN)NC(=O)CNC(=O)[C@@H]3CCCN3C(=O)[C@H]([C@@H](C)O)NC(=O)[C@@H]3CSSC[C@H](NC(=O)[C@H](C(C)C)NC(=O)[C@H](Cc4c[nH]cn4)NC(=O)[C@H](CC(N)=O)NC(=O)[C@@H]4CCCN4C(=O)[C@H](CSSC[C@H](NC(=O)[C@H](C)N)C(=O)N[C@@H](CCCCN)C(=O)NCC(=O)N[C@@H]([C@@H](C)CC)C(=O)N[C@@H](Cc4ccccc4)C(=O)N[C@@H](C(C)C)C(=O)N[C@@H]([C@@H](C)O)C(=O)N3)NC2=O)C(=O)N[C@@H](CO)C(=O)N[C@@H](CO)C(=O)N[C@@H](CCCCN)C(=O)N[C@@H](Cc2c[nH]cn2)C(=O)N[C@@H](CCCCN)C(=O)N[C@@H](Cc2c[nH]c3ccccc23)C(=O)N1)C(N)=O` [Cl6b] the IC50 (rKv4.2 V278A) was 0.145 ± 0.02 µM, the IC50 (rKv4.2 T280A) was 0.011 ± 0.001 µM and the IC50 (rKv4.2 D281K) was 3.27 ± 0.361 µM. The IC50 (rKv4.2 N282A) was 0.003 ± 0.001 µM.

— publication PMC11558128 (Advanced Science, 2024)
